Assay results: patent US20120122214A1

The chains behind the UniProt entries cited, without tags or fusion partners. Residues count along the entry.
UniProt P05067, 672-713 limits assumed: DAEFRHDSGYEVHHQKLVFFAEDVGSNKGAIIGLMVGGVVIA

Biological target: β-amyloid peptide (Amyloid β-Protein 1-42; Wako Chemicals) (human) (UniProt P05067)
Assay: flow cytometry; iPS-MP in suspension with β-amyloid-coated fluorescent particles, 37° C., 90 minutes

## single-chain antibody (scFv) recognizing human β-amyloid peptide, derived from mouse hybridoma clone 3D6, fused to mouse IgG2a Fc portion and mouse Fc receptor (FcγRI) trans-cell membrane-cytoplasm portion, expressed on iPS-MP
  mean fluorescence intensity: 1350
  percent of cells bound to the beads: 60.3%
